ChEMBL document CHEMBL6087456 (J Med Chem, 2025)

Assay: Kinetic solubility of compound at pH 6.5 measured after 30 mins by nephelometry
Assay type: physicochemical
Conditions: buffer, pH 6.5, 0.5 h

Kinetic_solubility: < 15 µM
Compound: Cc1nn(C2CC2)c(=O)c2nn(C)c(Cc3ccc(C(F)(F)F)c(C#N)c3)c12
